Experimental data from PMC9569529, “Safe and Efficient Sigma1 Ligand: A Potential Drug Candidate for Multiple Sclerosis” (International Journal of Molecular Sciences, 2022).

Legend:
S. typhimurium TA1535 = test: Ames test; conditions: 7i 40 µg/plate, positive control MNNG 0.25
S. typhimurium TA100 = test: Ames test; conditions: 7i 40 µg/plate, positive control MNNG 0.25

MNNG
Ames TA1535 −S9 (Mean revertants/well per title) (S. typhimurium TA1535): 85.9 | Ames TA100 −S9 (Mean revertants/well per title) (S. typhimurium TA100): 13.5
